Source: PubChem BioAssay (Broad Institute)
Sampled rows, rich in hits. Any-hit rate of the full collection: about 2.8%.
UUG fidelity = yeast start codon fidelity modulation | S. cerevisiae UUG-firefly luciferase reporter, luminescence/redox ratio | activity score, % at 18.7 µM | hit rate 0.13% among 350,000 | AID 602363;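 active means replicate mean at a twofold rise or more, about +100% in these data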;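 further: firefly luciferase made from a UUG start codon reports start codon fidelity; reporter light over untreated wells divided by growth signal over untreated wells; some hits fall short of that in this replicate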
esBAF inh = SWI/SNF esBAF complex inhibition | mouse ES cells, Bmi1-luciferase knock-in reporter, 24 h; 100% = twice the neutral-well signal | reporter increase, % at 12.5 µM | 350,000 compounds, 2% hits | AID 602393; in the data active means activation above about 40%; inconclusive means no clear call, values can overlap the other calls;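 further: 0% = median of the plate's neutral control wells and 100% = double that signal; a rise in the Bmi1 reporter signal indicates esBAF inhibition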
E-selectin induc = induces E-selectin expression in human endothelial cells. P16581. HUVEC E-selectin immunofluorescence imaging; normalized: neutral wells 0, TNF-alpha wells 100. activation, % at 7.58 µM. 260,000 compounds, 0.37% hits. AID 686992;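 active means mean E-selectin-positive cell signal at least 10% of the positive control, reached in at least 60% of replicates, without over 20% cell loss; inconclusive means no rule given, readout overlaps actives, possibly toxicity-flagged; inactive means the rest, including those meeting only one limit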
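assay system = HUVEC, human umbilical vein endothelial cells | input = 3,000 HUVEC seeded per well | medium = EGM-2 growth medium on 0.1% gelatin-coated wells | dosing = one compound dose added by pin transfer | signal = immunofluorescence imaging | read-out basis = % PE-positive cells | control set = TNF-alpha, DMSO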
Statin myotox sup = suppressors of simvastatin-induced myotoxicity in C2C12 myotubes; ATP luminescence, 48 h; scaled: DMSO 0, geranylgeraniol control 100; rescue of ATP level, % at 7.49 µM; 330,000 compounds, 0.78% hits;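 active means mean ATP rescue above about 67%, or every replicate alone reaching that limit, limit read from the data, passing the limit was not always enough; inconclusive means no clear call, values can overlap the other calls; inactive means mean under the limit and some replicate under it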;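 further: myotubes were challenged with 10 µM simvastatin during compound exposure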
PglD DTNB = PglD (C. jejuni) enzyme inhibition; inhibition, % at 12.5 µM; 360,000 compounds, 0.098% hits; purified PglD enzyme, DTNB colorimetric CoA detection; in the data active means inhibition above about 16%, passing the limit was not always enough; inconclusive means no clear call, values can overlap the other calls
PGC1a acetyl inh = modulators of PGC1a acetylation. U2OS PGC1a acetylation, AlphaScreen anti-acetyl-lysine; with virally co-expressed GCN5 acetyltransferase. inhibition, % at 15.6 µM. 350,000 compounds, 0.17% hits. AID 651687;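 active means every replicate shows inhibition of at least 40%; inconclusive means mean inhibition at least 40% but some replicate below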;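 further: 0% = neutral control wells and 100% = positive control wells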
An asterisk follows results filed as active; ? = inconclusive; · = not tested or not shown.

No.	SMILES	UUG fidelity	esBAF inh	E-selectin induc
1	COc1ccccc1-c1cc2ccccc2[nH]1	-14	74*	·
2	O=C(O)c1ccccc1-c1cc2ccccc2[nH]1	·	·	5
3	Cc1c(C(=O)N(CCO)Cc2ccccc2)oc2c(F)cccc12	-7	59*	·
4	COCC(=O)N1CC2(CCN(C(=O)CN3CCOCC3)CC2)c2c([nH]c3cc(OC)ccc23)[C@@H]1CO	·	·	0
5	O=C(NCc1ccco1)C(c1ccc(F)cc1)N(CC1CCCO1)C(=O)Cn1nnc2ccccc21 (configuration not stated)	-15	-10	·
6	COCCNC(=O)C(c1ccc(C)o1)N(CC1CCCO1)C(=O)Cn1nnc2ccccc21 (configuration not stated)	0	-10	-1
7	O=C(N[C@@H]1CC[C@H](CCNC(=O)c2ccccc2F)O[C@H]1CO)c1cnccn1	1	-5	0
8	Cn1c(C(=O)NC2CCCCC2)cc2c(=O)n3ccccc3nc21	-5	33	·
9	Cn1c(C(=O)NCc2ccccn2)cc2c(=O)n3ccccc3nc21	·	54*	·
10	COCC(=O)Nc1ccc2c(c1)[C@@H]1C[C@H](CC(=O)N3CCN(C)CC3)O[C@@H](CO)[C@@H]1O2	-12	3	0
11	O=C(N[C@H]1CC[C@@H](CCn2cc(C3(O)CCCC3)nn2)O[C@H]1CO)C1CC1	-5	-3	1
12	COC(=O)c1ccc(COC(=O)c2ccc(SC)cc2OC)cc1	0	63*	0

No.	Statin myotox sup	PglD DTNB	PGC1a acetyl inh
1	-1	-4	-15
2	·	·	·
3	34	-2	-11
4	·	·	-3
5	89*	5	4
6	12	2	9
7	2	0	2
8	-12	-2	1
9	8	·	12
10	-6	4	8
11	0	1	-15
12	6	1	0

Carrying on.
No.	SMILES	UUG fidelity	esBAF inh	E-selectin induc
13	COc1cc(SC)ccc1C(=O)OCC(=O)NCCNC(=O)COC(=O)c1ccc(SC)cc1OC	-13	-5	0
14	CC(C)c1cn(CC[C@@H]2CC[C@H](NC(=O)C3CCOCC3)[C@H](CO)O2)nn1	·	·	3
15	Cc1nnc(SCC(=O)NC2CCCCC2)n1N	·	4	0
16	CCCNC(=O)NC(=O)CSc1nnc(C)n1N	11	-4	·
17	CCOC(=O)CSC1=C(C#N)C(C)C2=C(CCCC2=O)N1 (configuration not stated)	-45	62*	·
18	CCc1ccc(OCC(=O)O/N=C(\N)c2ccccn2)cc1	-26	·	3
19	N/C(=N\OC(=O)COc1ccccc1)c1ccccn1	·	49*	·
20	N/C(=N\OC(=O)COc1ccc2ccccc2c1Br)c1ccccn1	29	85*	·
21	COc1ccc(CNC(=S)Nc2ccc(OC)cc2)cc1	·	·	-2
22	COc1ccc(NC(=S)NCc2ccc(F)cc2)cc1	-16	42*	·
23	Fc1ccc(CNC(=S)NCc2ccc(F)cc2)cc1	·	-7	2
24	CCNC(=S)NCc1ccc(F)cc1	-23	·	-1

No.	Statin myotox sup	PglD DTNB	PGC1a acetyl inh
13	4	5	·
14	·	·	0
15	-2	-1	4
16	80*	-6	-6
17	-10	-7	-15
18	·	-2	2
19	1	·	-4
20	11	0	·
21	·	·	·
22	0	3	-5
23	15	·	87*
24	·	4	-1

Remaining list, next part
No.	SMILES	UUG fidelity	esBAF inh	E-selectin induc
25	COc1ccc(CNC(=O)Nc2ccc(C)cc2)cc1	-2	55*	·
26	COc1ccc(CNC(=O)Nc2cc(C)cc(C)c2)cc1	·	12	0
27	C[C@@H]1CN([C@@H](C)CO)C(=O)c2cccc(NC(=O)c3cnccn3)c2O[C@H]1CN(C)S(=O)(=O)c1ccccc1	·	1	1
28	CC(=O)N(C)C[C@@H]1Oc2ncc(/C=C/c3ccccc3)cc2C(=O)N([C@@H](C)CO)C[C@H]1C	20	6	1
29	COC(=O)c1cc(NC(=O)c2ccccc2)c(=O)oc1C	·	·	·
30	COC(=O)c1cc(NC(=O)c2ccc(C)cc2)c(=O)oc1C	-16	45*	·
31	C[C@@H]1CN([C@H](C)CO)C(=O)Cc2cc(NS(=O)(=O)c3ccc(F)cc3)ccc2O[C@@H]1CN(C)Cc1ccc(-c2ccccc2)cc1	·	6	0
32	C[C@@H]1CN([C@@H](C)CO)C(=O)Cc2cc(NS(=O)(=O)c3ccc(F)cc3)ccc2O[C@H]1CN(C)Cc1ccc(-c2ccccc2)cc1	·	4	0
33	C[C@H]1CN([C@@H](C)CO)C(=O)Cc2cc(NS(=O)(=O)c3cn(C)cn3)ccc2O[C@@H]1CN(C)Cc1ccc(-c2ccccc2)cc1	·	-3	1
34	C[C@@H]1CN([C@@H](C)CO)C(=O)Cc2cc(NS(=O)(=O)c3ccc(Cl)cc3)ccc2O[C@H]1CN(C)Cc1ccc(-c2ccccc2)cc1	·	0	0
35	C[C@@H]1CN([C@@H](C)CO)C(=O)Cc2cc(NS(=O)(=O)c3cn(C)cn3)ccc2O[C@H]1CN(C)Cc1ccc(-c2ccccc2)cc1	·	-3	0
36	COc1ccc2c3c([nH]c2c1)[C@@H](CO)N(CC1CC1)CC31CN(C(=O)c2cccc(F)c2)C1	·	·	0

No.	Statin myotox sup	PglD DTNB	PGC1a acetyl inh
25	20	-6	-5
26	22	·	-7
27	-44	·	8
28	1	0	7
29	·	·	0
30	-2	3	4
31	40	·	-12
32	80*	·	2
33	88*	·	0
34	69*	·	-16
35	?	·	6
36	·	·	0

One compound at a time (already shown):
Entry for `C[C@@H]1CN([C@@H](C)CO)C(=O)Cc2cc(NS(=O)(=O)c3cn(C)cn3)ccc2O[C@H]1CN(C)Cc1ccc(-c2ccccc2)cc1` → UUG fidelity = ·; esBAF inh = -3; E-selectin induc = 0; Statin myotox sup = ?; PglD DTNB = ·; PGC1a acetyl inh = 6
Entry for `C[C@@H]1CN([C@@H](C)CO)C(=O)Cc2cc(NS(=O)(=O)c3ccc(Cl)cc3)ccc2O[C@H]1CN(C)Cc1ccc(-c2ccccc2)cc1` → UUG fidelity = ·; esBAF inh = 0; E-selectin induc = 0; Statin myotox sup = 69*; PglD DTNB = ·; PGC1a acetyl inh = -16

Following part:
No.	SMILES	UUG fidelity	esBAF inh	E-selectin induc
37	C[C@@H]1CCCCO[C@@H](CN(C)S(=O)(=O)c2cn(C)cn2)[C@H](C)CN([C@@H](C)CO)C(=O)c2cc(NS(=O)(=O)c3ccccc3)ccc2O1	6	11	0
38	C[C@H](CO)N1C[C@H](C)[C@@H](CN(C)Cc2ccccc2)Oc2ccc(NS(=O)(=O)c3ccc(Cl)cc3)cc2C1=O	-2	-5	·
39	O=C(C[C@@H]1CC[C@H]2[C@@H](COC[C@@H](O)CN2CC2CCCCC2)O1)NCc1ccc(Cl)cc1	-2	3	0
40	COc1cccc(-c2nc(-c3ccc(C(=O)O)cc3)no2)c1	-71	8	0
41	COc1cc(OC)cc(-c2nc(-c3ccccc3)no2)c1	-11	48*	·
42	COc1ccc(N=CC2=C(O)c3ccccc3C2=O)cc1	-32	·	·
43	O=C1C(C=Nc2ccccc2)=C(O)c2ccccc21	-59	56*	·
44	Cc1ccc(O)c(N=CC2=C(O)c3ccccc3C2=O)c1	-20	78*	·
45	C[C@H](CO)N1C[C@H](C)[C@@H](CN(C)C(=O)NC2CCCCC2)Oc2c(NC(=O)c3ccc(-c4nccs4)cc3)cccc2C1=O	10	6	-4
46	COc1ccc(S(=O)(=O)Nc2ccc3c(c2)C(=O)N([C@@H](C)CO)C[C@@H](C)[C@H](CN(C)Cc2ccc4c(c2)OCO4)OCCCC[C@H](C)O3)cc1	16	-12	1
47	CN1C(=O)C2(N=c3ccccc3=N2)c2ccccc21	·	41*	·
48	CN1C(=O)C2(OCC(C)([N+](=O)[O-])CO2)c2ccccc21 (configuration not stated)	-16	-3	·

No.	Statin myotox sup	PglD DTNB	PGC1a acetyl inh
37	·	2	-16
38	38	-4	-11
39	49	-2	-12
40	-41	-2	·
41	-8	-3	6
42	·	-3	3
43	·	-3	-7
44	12	-6	-16
45	-46	-5	-3
46	-54	-1	-4
47	2	·	6
48	-11	-3	21
